Measured values as given in paper PMC7129073 (Clinical Microbiology and Infection, 2015).

System: Staphylococcus coagulase negative (CNS)
Assay: Susceptibility testing
Type: cell-based
Conditions: conjunctival isolates 2000–2004

NC[C@H]1O[C@H](O[C@H]2[C@H](O)[C@@H](O[C@H]3O[C@H](CO)[C@@H](O)[C@H](N)[C@H]3O)[C@H](N)C[C@@H]2N)[C@H](N)C[C@@H]1O [tobramycin]
resistant isolates: 25.6%
